Laboratory results reported in patent US11376249B2 (priority 2017, dated 2022).
Like-named read-outs stand apart in the source and are kept apart here.

Settings: mice, plasma

O=C1CN2c3c(cccc3[C@@H]3CN(CCCOc4ccc(F)cc4)CC[C@@H]32)N1 [Example 3, (6bR,10aS)-8-(3-(4-fluorophenoxy)propyl)-6b,7,8,9,10,10a-hexahydro-1H-pyrido[3′,4′:4,5]pyrrolo[1,2,3-de]quinoxalin-2(3H)-one]
Cmax (PO 10 mg/kg): 279 ng/mL | Cmax (SC 0.1 mg/kg): 31.1 ng/mL
